System: T. brucei brucei bloodstream form parasites (strain Lister 427)
Test: Antitrypanosomal activity assay (resazurin; FIG. 2)
Format: cell-based
Details: 66 h + 6 h resazurin
Procedure: (A) The trypanosoma cell count and growth were evaluated at different doses of compounds of the invention.
Antitrypanosomal activity was tested on T. brucei brucei bloodstream from parasites (strain—Lister 427, VATMITat 1.2). Stock solutions of compounds (50 mM) were prepared in DMSO. Two fold serial dilutions of each compound (10 wells in each row) were prepared in 96 well plates in HMI111 medium (100 μl/well; quadruplicates; cf. also Hirumi et al., J. Parasitol. 75 (1989), 985-989). One well without compound, and one well with media alone were included in each row. […] The plates were incubated for 66 hours at 37° C. in the incubator with 5% CO2. 20 μl resazurin (Sigma, 0.125 mg/ml in Hanks Balanced Salt Solution) was added to all wells and the plate was further incubated for 6 hours. Change in color of resazurin (blue to pink) by living cells was measured with a 96 well plate reader (excitation at 530 nm, emission at 585 nm, filter cut-off: 570 nm). Percent inhibition values were calculated by setting the well without compound to “0% inhibition”.

## COc1ccc2c(OC)ccc(CN3CCc4c(c(C(=O)NCc5cccc6ccccc56)nn4CCO)C3)c2c1 [Compound 111]
  IC50: 4.05 µM

Source: patent US10138242B2, “Pyrazolopyridine derivatives and their use in therapy” (HELMHOLTZ ZENTRUM MUENCHEN—DEUTSCHES FORSCHUNGSZENTRUM FUER …, priority 2015, dated 2018)
